RAD52 inh – inhibitors of human RAD52 DNA annealing; inhibition, % at 18.7 µM; recombinant RAD52 DNA annealing, FRET fluorescence; AID 651710; 360,000 compounds, 0.46% hits; P43351;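 active means every replicate showing at least 50% inhibition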
E-selectin induc – E-selectin induction on HUVECs; P16581; HUVEC E-selectin immunofluorescence imaging; normalized: neutral wells 0, TNF-alpha wells 100; activation, % at 7.58 µM; 260,000 compounds, 0.37% hits;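 active means mean E-selectin-positive cell signal at least 10% of the positive control, reached in at least 60% of replicates, without over 20% cell loss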
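Read-out: % PE-positive cells | Test system: HUVEC | Doses: One compound dose added by pin transfer | Buffer or medium: EGM-2 over gelatin coat | Signal: Immunofluorescence imaging | Benchmarks: TNF-alpha, DMSO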
SIRT5 block – inhibitors of human sirtuin-5 desuccinylase; Q9NXA8; Purified SirT5, succinyl-peptide AMC, trypsin-coupled fluorescence; inhibition, % at 15 µM; 330,000 compounds, 1.1% hits; in the data active means inhibition above about 15%
RAD54 branch – inhibitors of human RAD54 branch migration; Q92698; RAD54 Holliday junction branch migration, FAM/BHQ fluorescence; inhibition, % at 10.4 µM; 360,000 compounds, 0.14% hits;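 active means mean normalized replicate activity at least 40 and at least half of replicates scoring 40 or more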;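 further: 0% = median of neutral control wells and 100% = median of positive control wells; inhibitors cause a drop in the FAM fluorescence signal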
MLL AF4-AF9 inh – inhibitors of human MLL-AF4/AF9 interaction; P42568; AlphaScreen, biotin-AF4 peptide binding to FLAG-AF9; inhibition, % at 10 µM; 350,000 compounds, 0.47% hits; AID 651704;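 active means every replicate reaching a set inhibition limit, whatever the replicate mean, cut at about 25% in these data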;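 further: 0% = plate neutral control median and 100% = total signal loss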
UUG fidelity – modulators of start codon recognition fidelity in yeast | S. cerevisiae UUG-firefly luciferase reporter, luminescence/redox ratio | activity score, % at 18.7 µM | 350,000 tested, 0.13% active;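 active = replicate mean at a twofold rise or more, about +100% in these data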;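 also: firefly luciferase made from a UUG start codon reports start codon fidelity; reporter light over untreated wells divided by growth signal over untreated wells; some hits fall short of that in this replicate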
Numbers without * were called inactive. This is a sample that favours compounds with a hit; in the whole collection about 1.8% have one here.

What do the screens show for `CC(C)NC(=O)N(C)C[C@@H]1Oc2ccc(NC(=O)CCN3CCOCC3)cc2C(=O)N([C@H](C)CO)C[C@H]1C`?
RAD52 inh: 1; E-selectin induc: 65*; SIRT5 block: -3; RAD54 branch: -5; MLL AF4-AF9 inh: -2; UUG fidelity: -10

How did OCC(CCc1c[nH]c2ccccc12)c1c[nH]c2ccccc12 (stereo unspecified) do in these assays?
RAD52 inh: -3; E-selectin induc: 1; MLL AF4-AF9 inh: 41*

Results for Cc1cccc2c1CC(C)(C)N=C2C1=C(O)CCCC1=O ?
RAD54 branch: 18; UUG fidelity: 0

Results for CC1=NC(C)(C)Cc2c(C)cccc21 ?
RAD52 inh: 1; E-selectin induc: 72*; SIRT5 block: 0; RAD54 branch: -10; MLL AF4-AF9 inh: 2; UUG fidelity: -8

How did CCC(=O)N[C@@H]1CC[C@H](CC(=O)NCc2ccccc2OC)O[C@@H]1CO do in these assays?
RAD52 inh: 1; E-selectin induc: -1; SIRT5 block: 4; RAD54 branch: -6; MLL AF4-AF9 inh: -9; UUG fidelity: -7

What do the screens show for `O=C(Nc1cccc(Cl)c1)Nc1cccc(C(=O)O)c1`?
RAD52 inh: -12; SIRT5 block: 23*; RAD54 branch: 1; MLL AF4-AF9 inh: 1; UUG fidelity: -50

How did COC(=O)[C@@]1(Cc2ccc(F)cc2)[C@H]2c3cc(C(=O)N(C)C)n(Cc4ccc(C)o4)c3C[C@H]2CN1C(=O)c1ccccc1 do in these assays?
RAD52 inh: -35; E-selectin induc: 86*; MLL AF4-AF9 inh: 11

What do the screens show for `COC(=O)[C@@]1(Cc2ccc(F)cc2)[C@H]2c3cc(C(=O)N(C)C)n(Cc4ccccc4)c3C[C@H]2CN1C(=O)c1ccccc1`?
RAD52 inh: -17; E-selectin induc: 0; MLL AF4-AF9 inh: 10

What do the screens show for `CCCC(=O)Nc1ccc2c(c1)C(=O)N(C)C[C@H](OC)[C@@H](C)CN(C(=O)c1ccncc1)[C@@H](C)CO2`?
RAD52 inh: -3; E-selectin induc: 2; SIRT5 block: 1; RAD54 branch: -3; MLL AF4-AF9 inh: 1; UUG fidelity: -11

Results for Cc1cc(C(=O)COc2ccc(C#N)cc2)c(C)n1-c1ccc2c(c1)OCO2 ?
RAD52 inh: -13; E-selectin induc: 1; SIRT5 block: 35*; RAD54 branch: -3; MLL AF4-AF9 inh: -7; UUG fidelity: -19

Results for O=C(C[C@H]1C=C[C@@H](NC(=O)c2ccc(F)cc2)[C@@H](CO)O1)NCCc1ccccc1 ?
RAD52 inh: 0; E-selectin induc: -1; SIRT5 block: 2; RAD54 branch: 2; MLL AF4-AF9 inh: -3; UUG fidelity: -13

How did Cc1ccc(C(=O)Nc2cc(C)nn2CCC#N)cc1 do in these assays?
RAD52 inh: -14; E-selectin induc: 32*; SIRT5 block: 1; RAD54 branch: -2; MLL AF4-AF9 inh: 0; UUG fidelity: -11

Results for C[C@]12CCC(=O)C[C@@H]1CC[C@@H]1[C@@H]2CC[C@]2(C)C=CC[C@@H]12 ?
RAD52 inh: -2; E-selectin induc: 0; SIRT5 block: -8; RAD54 branch: 17; MLL AF4-AF9 inh: -4; UUG fidelity: -12

Results for C[C@]12CCC(=O)CC1CCC1C2CC[C@@]2(C)C1CC[C@@]21CCO1 (stereo partly specified) ?
RAD52 inh: -6; E-selectin induc: 50*; SIRT5 block: -6; RAD54 branch: -38; MLL AF4-AF9 inh: 1; UUG fidelity: -11

Results for C[C@H]1CN([C@@H](C)CO)C(=O)c2cccc(NC(=O)Nc3ccc(F)cc3)c2O[C@@H]1CN(C)C ?
RAD52 inh: 3; E-selectin induc: 0; SIRT5 block: -3; RAD54 branch: 2; MLL AF4-AF9 inh: -1; UUG fidelity: 4

Results for C[C@@H]1CN([C@H](C)CO)C(=O)c2cccc(NS(C)(=O)=O)c2O[C@H]1CN(C)Cc1ccc(Oc2ccccc2)cc1 ?
RAD52 inh: -3; E-selectin induc: 4; SIRT5 block: 3; RAD54 branch: 8; MLL AF4-AF9 inh: 1; UUG fidelity: 0

How did C[C@H]1CN([C@@H](C)CO)C(=O)c2cccc(NS(C)(=O)=O)c2O[C@@H]1CN(C)Cc1ccc(Oc2ccccc2)cc1 do in these assays?
RAD52 inh: -5; E-selectin induc: 32*; SIRT5 block: 2; RAD54 branch: -3; MLL AF4-AF9 inh: 1; UUG fidelity: -2

How did C[C@@H]1CN([C@H](C)CO)C(=O)c2cccc(NS(C)(=O)=O)c2O[C@@H]1CN(C)Cc1ccncc1 do in these assays?
RAD52 inh: 12; E-selectin induc: 262*; SIRT5 block: -5; RAD54 branch: 1; MLL AF4-AF9 inh: 1; UUG fidelity: -9

What do the screens show for `C[C@H]1CN([C@@H](C)CO)C(=O)c2cccc(NS(C)(=O)=O)c2O[C@@H]1CN(C)Cc1ccncc1`?
RAD52 inh: 14; E-selectin induc: 204*; SIRT5 block: 0; RAD54 branch: 0; MLL AF4-AF9 inh: -3; UUG fidelity: 11

Results for COc1ccc(C(=O)N2C[C@@H]3[C@H](c4ccccc42)[C@@H](CO)N3C(=O)c2ccc(F)cc2)cc1 ?
RAD52 inh: 3; E-selectin induc: 0; SIRT5 block: -1; RAD54 branch: 2; MLL AF4-AF9 inh: -16; UUG fidelity: 17

3 entries drawn at random from the list so far, as already listed:
Results for C[C@]12CCC(=O)C[C@@H]1CC[C@@H]1[C@@H]2CC[C@]2(C)C=CC[C@@H]12 ?
RAD52 inh: -2; E-selectin induc: 0; SIRT5 block: -8; RAD54 branch: 17; MLL AF4-AF9 inh: -4; UUG fidelity: -12

Results for C[C@]12CCC(=O)CC1CCC1C2CC[C@@]2(C)C1CC[C@@]21CCO1 (stereo partly specified) ?
RAD52 inh: -6; E-selectin induc: 50*; SIRT5 block: -6; RAD54 branch: -38; MLL AF4-AF9 inh: 1; UUG fidelity: -11

Results for C[C@H]1CN([C@@H](C)CO)C(=O)c2cccc(NC(=O)Nc3ccc(F)cc3)c2O[C@@H]1CN(C)C ?
RAD52 inh: 3; E-selectin induc: 0; SIRT5 block: -3; RAD54 branch: 2; MLL AF4-AF9 inh: -1; UUG fidelity: 4

(next part)
How did CCCC#Cc1ccc([C@H]2[C@H](CO)N3C(=O)CN(C(=O)c4ccccc4)C[C@@H]23)cc1 do in these assays?
RAD52 inh: 0; E-selectin induc: 1; SIRT5 block: -3; MLL AF4-AF9 inh: 0

What do the screens show for `Cc1ccccc1-c1ccc2c(c1)O[C@H](CN(C)Cc1ccc(C(=O)O)cc1)[C@@H](C)CN([C@@H](C)CO)S2(=O)=O`?
RAD52 inh: 5; E-selectin induc: 0; SIRT5 block: 5; RAD54 branch: 4; MLL AF4-AF9 inh: -1

How did Cc1ccc(S(=O)(=O)N[C@@H](Cc2ccccc2)C(=O)N2CCC(C(=O)N[C@@H](CCC(N)=O)C(=O)O)CC2)cc1 do in these assays?
RAD52 inh: -14; E-selectin induc: 66*; SIRT5 block: -4; RAD54 branch: 0; MLL AF4-AF9 inh: -1; UUG fidelity: -8

What do the screens show for `O=C(Cc1ccccc1)c1ccc(O)cc1`?
RAD52 inh: -11; E-selectin induc: 0; SIRT5 block: 18*; RAD54 branch: 1; MLL AF4-AF9 inh: 1; UUG fidelity: -2

What do the screens show for `CCCCN1C(=O)C(CC(=O)NCC2CCCCC2)CC(C(=O)N(C)C)=C1C` (stereo unspecified)?
RAD52 inh: -1; SIRT5 block: -5; RAD54 branch: -11; MLL AF4-AF9 inh: -6; UUG fidelity: -15

Results for CCCCN1C(=O)C(CC(=O)NCC2CCCCC2)CC(C(=O)N(CC)CC)=C1C (stereo unspecified) ?
RAD52 inh: -6; E-selectin induc: 0; SIRT5 block: 17*; RAD54 branch: 3; MLL AF4-AF9 inh: 0; UUG fidelity: -15

Source: PubChem BioAssay (Broad Institute)
